Source: ChEMBL document CHEMBL2057160, “Experimental and 'in silico' analysis of the effect of pH on HIV-1 protease inhibitor affinity: implications for the charge state of the protein ionogenic groups” (Bioorg Med Chem, 2012)

Legend:
Protease [1] = target: T1, Protease (Human immunodeficiency virus 1, UniProt Q9YQ12); test: Binding affinity to Human immunodeficiency virus 1 protease by SPR biosensor interaction analysis at pH 7.4
Protease [2] = target: T1, Protease; test: Binding affinity to Human immunodeficiency virus 1 protease by SPR biosensor interaction analysis at pH 4.1
Protease [3] = target: T1, Protease; test: Binding affinity to Human immunodeficiency virus 1 protease by SPR biosensor interaction analysis at pH 5.1

pKd (Protease [1])	pKd (Protease [2])	pKd (Protease [3])	Structure (SMILES)
8.92	8.26	8.86	CC(C)(C)NC(=O)[C@@H]1CN(Cc2cccnc2)CCN1C[C@@H](O)C[C@@H](Cc1ccccc1)C(=O)N[C@H]1c2ccccc2C[C@H]1O [INDINAVIR]
9.24	8.38	9.20	CC(C)(C)NC(=O)[C@@H]1C[C@@H]2CCCC[C@@H]2CN1C[C@@H](O)[C@H](Cc1ccccc1)NC(=O)[C@H](CC(N)=O)NC(=O)c1ccc2ccccc2n1 [SAQUINAVIR]

pKd: −log10 of the molar value.
